Measurements taken from US9556159B2, “Renin inhibitor” (MITSUBISHI TANABE PHARMA CORPORATION, priority 2012, dated 2017).

The chains behind the UniProt entries cited, without tags or fusion partners. Residues count along the entry.
UniProt P00797, 67-406 limits assumed: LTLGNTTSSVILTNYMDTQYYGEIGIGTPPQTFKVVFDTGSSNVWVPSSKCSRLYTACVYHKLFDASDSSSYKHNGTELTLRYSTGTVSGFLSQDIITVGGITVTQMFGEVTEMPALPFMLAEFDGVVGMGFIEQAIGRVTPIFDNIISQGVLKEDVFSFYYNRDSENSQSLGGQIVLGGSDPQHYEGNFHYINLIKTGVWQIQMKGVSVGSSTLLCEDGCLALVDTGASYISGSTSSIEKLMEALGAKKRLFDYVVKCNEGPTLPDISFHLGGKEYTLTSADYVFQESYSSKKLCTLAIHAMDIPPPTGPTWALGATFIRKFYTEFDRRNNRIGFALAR

Target: Recombinant human renin (Homo sapiens, UniProt P00797)
Test: Inhibitory activity against human renin (fluorogenic peptide substrate)
Assay type: biochemical
Conditions: read-out: 50% inhibitory concentration (IC50) against human renin, 37° C. for 1 hour

COC(=O)NCCCc1cc([C@@H](C)N(C(=O)[C@H]2CNCCO2)C2CC2)sc1-c1ccc(-c2nn[nH]n2)cc1
IC50: 0.4 nM
